Experimental data published in ChEMBL document CHEMBL5257125, “Discovery of pyrido[4,3-d]pyrimidinone derivatives as novel Wee1 inhibitors” (Bioorg Med Chem, 2023).

Tests used:
Homo sapiens [1] = species: Homo sapiens; experiment: Selectivity ratio of IC50 for PLK1 (unknown origin) to IC50 for human Wee1
Homo sapiens [2] = species: Homo sapiens; experiment: Selectivity ratio of IC50 for CSK (unknown origin) to IC50 for human Wee1
Homo sapiens [3] = species: Homo sapiens; experiment: Selectivity ratio of IC50 for JAK1 (unknown origin) to IC50 for human Wee1

Measured: Ratio IC50

CC(=O)Nc1cc(Nc2cc3ncn(-c4c(Cl)cccc4Cl)c(=O)c3cn2)ccc1N1C[C@@H](C)N[C@@H](C)C1
500: all assays above
